According to patent US7887850B2, “Method for reducing pathogens in the gastrointestinal tract of poultry and other food animals” (Ecolab Inc., priority 2004, dated 2011):

Tested on: broilers
Settings: drinking water

In the case of sodium chlorite, the “differences in mortality during the experiment” value (broilers 35 days of age, free access, seven day period, sodium chlorite 0-1.2 %, citric acid 0-0.4 % by weight) was “No significant (P>0.05) differences”, the “response of daily and 7-day water consumption to graded levels in the water” value (broilers, seven days) was “Linear and quadratic responses” and the “concentrations that negatively affected live performance and water intake” value (broilers, seven days, P<0.05) was > 0.06%. For the same substance, the “concentrations that significantly lowered weight gain and feed consumption” value (broilers, seven days, percent by weight) was “above 0.12%”.
